Values quoted from earlier work in PMC5126733 (Journal of medicinal chemistry, 2015).

The chains behind the UniProt entries cited, without tags or fusion partners. Where a name states a change or a piece, a line headed by the entry shows the natural chain unless it says otherwise.
UniProt P11511: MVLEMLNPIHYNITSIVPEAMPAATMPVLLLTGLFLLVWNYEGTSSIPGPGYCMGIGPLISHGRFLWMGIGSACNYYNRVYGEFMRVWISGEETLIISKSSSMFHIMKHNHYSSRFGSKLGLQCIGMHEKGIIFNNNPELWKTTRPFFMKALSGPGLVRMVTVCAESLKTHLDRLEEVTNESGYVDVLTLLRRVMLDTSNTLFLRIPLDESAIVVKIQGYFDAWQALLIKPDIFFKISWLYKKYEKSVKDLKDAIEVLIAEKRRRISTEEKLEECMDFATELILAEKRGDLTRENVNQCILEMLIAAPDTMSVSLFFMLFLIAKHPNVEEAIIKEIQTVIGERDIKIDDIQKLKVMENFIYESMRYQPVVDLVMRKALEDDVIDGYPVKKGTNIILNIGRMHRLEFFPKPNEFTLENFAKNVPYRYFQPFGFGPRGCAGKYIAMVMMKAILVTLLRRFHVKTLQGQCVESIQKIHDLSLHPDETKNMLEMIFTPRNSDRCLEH

Target: recombinant human aromatase (CYP19) (Homo sapiens, UniProt P11511)
Settings: previous testing results; cited from earlier work

CCC(=C(c1ccc(O)cc1)c1ccc(OCCN)cc1)c1ccccc1 [(E,Z)-norendoxifen]
fold increase in aromatase inhibitory activity compared with 7: > 240 fold
